Test results from patent publication US20220024983A1, “BICYCLIC PEPTIDE LIGANDS SPECIFIC FOR IL-17” (BicycleRD Limited, priority 2018, published 2022).
Where two headings read alike, the source gives them in different places.

Tests used:
[1] = target: T1, IL17A dimer (Mus musculus, UniProt Q62386); experiment: IL-17A mouse binding assay; settings: Table 2, Mouse IL17A dimer
T1 sequence (Q62386 26-158): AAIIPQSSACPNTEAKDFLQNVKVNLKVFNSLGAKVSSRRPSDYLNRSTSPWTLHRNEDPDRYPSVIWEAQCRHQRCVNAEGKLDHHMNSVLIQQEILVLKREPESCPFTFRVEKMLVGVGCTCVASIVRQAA
Procedure: (§1) IL-17A, IL-17E and IL-17F binding was determined using an analogous method to that described in WO 2011/141823.
(§2) Selected peptide ligands of the invention were tested in the above mentioned IL-17A, IL-17E and IL-17F human and mouse binding assays and the results are shown in Tables 1 and 2: […]

[2] = target: T2, hIL17-A / IL17A dimer (Homo sapiens, UniProt Q16552); experiment: IL-17A human binding assay
T2 sequence (Q16552 24-155): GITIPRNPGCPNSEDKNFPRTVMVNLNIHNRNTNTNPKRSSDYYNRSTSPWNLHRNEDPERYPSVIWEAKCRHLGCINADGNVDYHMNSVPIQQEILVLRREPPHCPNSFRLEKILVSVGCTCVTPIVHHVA
Procedure: as §1, §2

[3] = target: T3, IL17A/F dimer (Homo sapiens, UniProt Q16552+Q96PD4); experiment: IL-17A/F human binding assay; settings: Table 2, Human IL17A/F dimer
T3 sequence (Q16552 24-155): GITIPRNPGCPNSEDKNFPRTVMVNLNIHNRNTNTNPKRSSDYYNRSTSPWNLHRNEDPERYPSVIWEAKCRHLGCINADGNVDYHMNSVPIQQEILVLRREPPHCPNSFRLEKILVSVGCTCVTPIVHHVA
T3 sequence (Q96PD4 31-163): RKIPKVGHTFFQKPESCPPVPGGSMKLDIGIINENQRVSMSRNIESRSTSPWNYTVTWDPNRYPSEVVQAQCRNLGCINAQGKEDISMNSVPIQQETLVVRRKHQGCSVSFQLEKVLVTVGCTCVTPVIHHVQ
Procedure: as §1, §2

[4] = target: T4, hIL17-F / IL17F dimer (Homo sapiens, UniProt Q96PD4); experiment: IL-17F human binding assay; settings: Table 2, Human IL17F dimer; read-out: Kd
T4 sequence (Q96PD4 31-163): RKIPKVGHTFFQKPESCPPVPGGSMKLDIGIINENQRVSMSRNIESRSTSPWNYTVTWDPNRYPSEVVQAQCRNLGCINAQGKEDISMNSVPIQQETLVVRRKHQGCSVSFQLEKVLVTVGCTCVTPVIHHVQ
Procedure: as §1, §2

[5] = target: T5, hIL17-E (Homo sapiens, UniProt Q9H293); experiment: IL-17E human binding assay; settings: Table 1, human
T5 sequence (Q9H293 33-177): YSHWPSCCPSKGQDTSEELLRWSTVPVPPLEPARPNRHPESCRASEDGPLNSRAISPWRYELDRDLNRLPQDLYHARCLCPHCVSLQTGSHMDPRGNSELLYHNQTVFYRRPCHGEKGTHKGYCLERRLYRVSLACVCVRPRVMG
Procedure: as §1, §2

[6] = target: T6, human IL-17E (human, UniProt Q9H293 33-177); experiment: binding assay, method analogous to WO 2011/141823; column head prints hIL17-F, read as IL-17E by paragraph 29 and paragraph 30
T6 construct: also called hIL17-E; IL-25
T6 sequence (looked up): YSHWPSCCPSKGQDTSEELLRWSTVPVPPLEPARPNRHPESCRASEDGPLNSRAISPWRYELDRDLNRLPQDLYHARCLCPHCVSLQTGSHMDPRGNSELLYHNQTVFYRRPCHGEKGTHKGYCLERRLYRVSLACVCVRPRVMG

[7] = target: T7, human IL-17A dimer (human, UniProt Q16552 24-155); experiment: FP competition, competitor: tracer BCY2315
T7 construct: also called hIL17-A
T7 sequence (looked up): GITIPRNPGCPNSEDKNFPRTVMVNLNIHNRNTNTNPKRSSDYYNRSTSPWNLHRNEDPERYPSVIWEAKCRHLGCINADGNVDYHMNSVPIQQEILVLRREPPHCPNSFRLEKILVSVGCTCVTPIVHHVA
Procedure: (§3) Affinity determination by fluorescence polarization (FP) competition. Bicycles were screened to determine affinity (Ki) in a fluorescence polarisation assay where in competition with a bicycle labelled with fluorescein (referred to as tracer) with a known affinity for IL-17A. Peptides were diluted to an appropriate concentration in assay buffer (PBS+0.01% Tween20, adjusted to pH7.4 using NaOH (1M)) with a maximum of 1% DMSO, then serially diluted 1 in 2 into assay buffer. Into black 384-well low volume plates, 5 µL of diluted peptide was added to the plate followed by 10 μL of IL-17A (75 nM) then 10 μL tracer added to a final concentration of 1 nM. Measurements were conducted on a BMG PHERAstar FS equipped with an “FP 485 520 520” optic module which excites at 485 nm and detects parallel and perpendicular emission at 520 nm. The PHERAstar FS was set at 25° C. with 200 flashes per well and a positioning delay of 0.1 second, with each well measured at 5 to 10 minute intervals for 60 minutes. The gain used for measurements was determined at the point of experiment on a tracer alone well. Data analysis was performed in Dotmatics where mP values were fit to the Cheng Prusoff equation in order to generate a Ki value.
(§4) Selected peptide ligands of the invention were tested in the above mentioned human FP competition assay and the results are shown in Table 3: […]

[8] = target: T7, human IL-17A dimer; experiment: FP competition, competitor: tracer BCY2311; Ki Mean column, n=5
Procedure: as §3, §4

[9] = target: T7, human IL-17A dimer; experiment: FP competition, competitor: tracer BCY2311
Procedure: as §3, §4

[10] = target: T7, human IL-17A dimer; experiment: FP competition, competitor: tracer BCY2311; Ki Mean column, n=3
Procedure: as §3

[11] = target: T7, human IL-17A dimer; experiment: FP competition, competitor: tracer BCY2315; Ki Mean column, n=2
Procedure: as §3

[12] = target: T7, human IL-17A dimer; experiment: FP competition, competitor: tracer BCY2311; Ki Mean column, n=2
Procedure: as §3, §4

[13] = target: T7, human IL-17A dimer; experiment: binding assay, method analogous to WO 2011/141823
[14] = target: T7, human IL-17A dimer; experiment: FP competition, competitor: tracer BCY2311; Ki Mean column, n=4
Procedure: as §3, §4

[15] = target: T7, human IL-17A dimer; experiment: FP competition, competitor: tracer BCY2315; Ki Mean column, n=3
Procedure: as §3, §4

[16] = target: T8, human IL-17F dimer (human, UniProt Q96PD4 31-163); experiment: binding assay, method analogous to WO 2011/141823; column head prints hIL17-E, read as IL-17F by paragraph 34 and paragraph 38
T8 construct: also called hIL17-F
T8 sequence (looked up): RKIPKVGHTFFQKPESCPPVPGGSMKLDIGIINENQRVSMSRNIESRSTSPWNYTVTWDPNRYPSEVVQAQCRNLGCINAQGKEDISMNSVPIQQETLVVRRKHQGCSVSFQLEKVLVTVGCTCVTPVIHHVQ

[17] = target: T8, human IL-17F dimer; experiment: binding assay, method analogous to WO 2011/141823; column head prints hIL17-E, read as IL-17F by paragraph 38
[18] = Table 2, Human IL17A dimer, column Mean, read-out: Kd Mean
[19] = Table 2, Human IL17A dimer, read-out: Kd

Molecule: [Mca]-G-[Sar5]-A-(SEQ ID NO: 1)-A [BCY2309]
- Kd [1]: > 1000 nM
- Kd [2, 18]: 334 nM
- Kd [2, 19]: 336 ± 71.5 nM

Molecule: A-(SEQ ID NO: 30)-A-[Sar6]-K-[Fl] [BCY2319]
- Kd [1]: 158 nM
- Kd [2, 19]: 657 nM

Molecule: A-(SEQ ID NO: 14)-A-[Sar6]-K-[Fl] [BCY2315]
- Kd [1]: > 650 nM
- Kd [2, 18]: 5.6 nM
- Kd [2, 19]: 5.63 ± 0.73 nM

Molecule: [Fl]G-[Sar5]-A-(SEQ ID NO: 1)-A [BCY2311]
- Kd [3]: > 1000 nM
- Kd [1]: > 650 nM
- Kd [4]: > 1000 nM
- Kd [2, 18]: 24.7 nM
- Kd [2, 19]: 25.9 ± 6.19 nM

Molecule: A-(SEQ ID NO: 58)-A-[Sar6]-K-[Fl] [BCY2222]
- Kd [4]: 229 nM
- Kd [2, 19]: 702 nM

Molecule: A-(SEQ ID NO: 59)-A-[Sar6]-K-[Fl] [BCY2217]
- Kd [4]: 401 nM

Molecule: A-(SEQ ID NO: 49)-A-[Sar6]-K-[Fl] [BCY2316]
- Kd [1]: > 650 nM
- Kd [2, 19]: 372 nM

Molecule: A-(SEQ ID NO: 29)-A-[Sar6]-K-[Fl] [BCY2318]
- Kd [1]: > 1000 nM
- Kd [2, 19]: 538 nM

Molecule: A-(SEQ ID NO: 31)-A-[Sar6]-K-[Fl] [BCY2320]
- Kd [1]: > 650 nM
- Kd [2, 19]: 282 nM

Molecule: A-(SEQ ID NO: 54)-A-[Sar6]-K-[Fl] [BCY2317]
- Kd [1]: > 650 nM
- Kd [2, 19]: 181 nM

Molecule: A-(SEQ ID NO: 58)-A [BCY2203]
- Kd [5]: 240 nM
- Kd ([2]; Table 1, human, read-out: hIL17-A Binding Kd): 702 nM

B1: BCY2441 (peptide)
peptide: ACLWKDNCTHWSLCA
modifications: Ci, Cii and Ciii cyclised with TBMB
notes: Bicyclic peptide
- Kd [6]: 392 nM

B2: BCY2273 (peptide)
peptide: ACDTDPELCRFLNLDCA
modifications: Ci, Cii and Ciii cyclised with TBMB
notes: Bicyclic peptide
- Ki [7]: 34.2 nM
- Ki [8]: 84.3 nM
- Ki [9]: 85.2 nM

B3: BCY2286 (peptide)
peptide: ACDTDPELCRFLGLDCA
modifications: Ci, Cii and Ciii cyclised with TBMB
notes: Bicyclic peptide
- Ki [7]: 15.7 nM
- Ki [10]: 23.3 nM
- Ki [9]: 25 nM
- Ki [11]: 15.3 nM

B4: BCY2293 (peptide)
peptide: ACPNELYCFVTGNCA
modifications: Ci, Cii and Ciii cyclised with TBMB
notes: Bicyclic peptide
- Ki [10]: 277 nM
- Ki [9]: 281 nM

B5: BCY2265 (peptide)
peptide: ACDQDELMCFLTGHQCA
modifications: Ci, Cii and Ciii cyclised with TBMB
notes: Bicyclic peptide
- Ki [12]: 741 nM
- Kd [13]: 336 nM
- Ki [9]: 822 nM

B6: BCY2235 (peptide)
peptide: ACYEDELCEFLGLCA
modifications: Ci, Cii and Ciii cyclised with TBMB
notes: Bicyclic peptide
- Ki [14]: 130 nM
- Ki [9]: 134 nM

B7: BCY2239 (peptide)
peptide: CYEAELCEFLGLC
modifications: Ci, Cii and Ciii cyclised with TBMB; N-terminal acetyl (Ac)
notes: Bicyclic peptide
- Ki [8]: 32.3 nM
- Ki [9]: 33.2 nM

B8: BCY2243 (peptide)
peptide: CYEDELCAFLGLC
modifications: Ci, Cii and Ciii cyclised with TBMB; N-terminal acetyl (Ac)
notes: Bicyclic peptide
- Ki [7]: 40.5 nM
- Ki [15]: 39.8 nM
- Ki [9]: 30.4 nM

B9: BCY2246 (peptide)
peptide: CYEDELCEWLGLC
modifications: Ci, Cii and Ciii cyclised with TBMB; N-terminal acetyl (Ac)
notes: Bicyclic peptide
- Ki [7]: 550 nM
- Ki [11]: 546 nM

B10: BCY2252 (peptide)
peptide: CYEDELCEWLNLC
modifications: Ci, Cii and Ciii cyclised with TBMB; N-terminal acetyl (Ac)
notes: Bicyclic peptide
- Ki [7]: 1750 nM
- Ki [11]: 1690 nM

B11: BCY2203 (peptide)
peptide: ACDHSDFICWLNNFNCA
modifications: Ci, Cii and Ciii cyclised with TBMB
notes: Bicyclic peptide
- Kd [13]: 702 nM
- Kd [16]: 240 nM

B12: BCY2258 (peptide)
peptide: ACSDLELCEFLGLCA
modifications: Ci, Cii and Ciii cyclised with TBMB
notes: Bicyclic peptide
- Ki [10]: 399 nM
- Ki [9]: 410 nM

B13: BCY2259 (peptide)
peptide: ACDDYQLCEFLGLCA
modifications: Ci, Cii and Ciii cyclised with TBMB
notes: Bicyclic peptide
- Ki [10]: 598 nM
- Ki [9]: 601 nM

B14: BCY2260 (peptide)
peptide: ACEDKELCEFFGLCA
modifications: Ci, Cii and Ciii cyclised with TBMB
notes: Bicyclic peptide
- Ki [14]: 268 nM
- Ki [9]: 276 nM

B15: BCY2202 (peptide)
peptide: ACGQCSFSYWLNCA
modifications: Ci, Cii and Ciii cyclised with TBMB
notes: Bicyclic peptide
- Kd [17]: 373 nM

B16: BCY2272 (peptide)
peptide: ACPQDLELCTFLFGDCA
modifications: Ci, Cii and Ciii cyclised with TBMB
notes: Bicyclic peptide
- Ki [8]: 255 nM
- Ki [9]: 281 nM
